Consider one substance from article PMC7135997.

In the assay the target is rat cardiac troponin I (rat) (UniProt P23693). In words: SEC-MALS; complex reconstituted from the three separately purified subunits mixed 1:1:1 in 6 mol/liter urea, dialysed, purified on Resource-Q; Superdex 200 5/150 GL in 50 mmol/liter Tris-HCl (pH 7.4), 5 mM MgCl2, 1 mmol/liter CaCl2, 100 mM NaCl, 100 mmol/liter tris(2-carboxyethyl)phosphine; also characterized by HPLC and ESI-MS. In general terms: In gel filtration, larger molecules generally elute earlier.

Broadly, the stoichiometry N is a count of units in the complex or per binding partner. In the case of “rat cardiac troponin C (from UniProt Q4PP99 1-161) (natural protein)”, the stoichiometry N came to 1.
